pIC50, pKi: −log10 of the molar value.
Columns and labels:
[1] = test system: HL2/3; assay: Inhibition of HIV1 gp41-induced cell-cell fusion between HXB2 viral envelope expressing human HL2/3 cells to CXCR4-tropic expressing TZM-bl cells after 6 hrs by LTR luciferase reporter gene assay; assay type: cell-based; settings: Human immunodeficiency virus 1
How it was run: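 TZM-bl target cells (CD4, CCR5, CXCR4; HIV-1 LTR-driven firefly luciferase) at 25,000/well, cultured overnight, then given serially diluted inhibitor. 50,000 HL2/3 effector cells (HXB2 Env, Tat, Rev) were added and fusion ran 6 h in reduced-serum medium with 1% DMSO final. Luciferase was read, with 1% DMSO controls with and without HL2/3, in triplicate.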

[2] = test system: Human immunodeficiency virus 1
[3] = (§1) Inhibition of HIV1 Ba-L gp41-induced virus-cell fusion between HIV1 Ba-L to MAGI cells expressing CCR5-tropic treated 3 hrs post infection measured after 48 hrs by beta-galactosidase based chemiluminescence assay; settings: Human immunodeficiency virus 1, Ba-L
[4] = test system: MAGI; assay: as §1; settings: Human immunodeficiency virus 1
[5] = (§2) Inhibition of HIV1 3B gp41-induced virus-cell fusion between HIV1 3B to MAGI cells expressing CXCR4-tropic treated 3 hrs post infection measured after 48 hrs by beta-galactosidase based chemiluminescence assay; settings: Human immunodeficiency virus 1, 3B
[6] = test system: MAGI; assay: as §2; settings: Human immunodeficiency virus 1
[7] = test system: Human immunodeficiency virus 1; remark: listed apart in the source
[8] = test system: Human immunodeficiency virus 1; remark: listed apart in the source
[9] = Inhibition of fluorescently labeled C-terminal HR2 probe peptide binding to wild type HIV-1 Fe(env2.0)3 peptide model of gp41 hydrophobic pocket assessed as inhibition constant for first binding interaction at compound to protein ratio of 1:2 by fluorescence assay; parameters: species or system Human immunodeficiency virus 1
[10] = Inhibition of fluorescently labeled C-terminal HR2 probe peptide binding to wild type HIV-1 Fe(env2.0)3 peptide model of gp41 hydrophobic pocket assessed as inhibition constant for second binding interaction at compound to protein ratio of 1:2 by fluorescence assay; parameters: species or system Human immunodeficiency virus 1

SMILES | IC90 [1] [µM] | Ka [2] [×10⁴ /M/s] | pIC50 [3] | IC90 [4] [µM] | pIC50 [5] | IC90 [6] [µM] | Ka [7] [M⁻¹ s⁻¹] | Ka [8] [×10⁻⁵ /RU/s] | pKi [9] | pKi [10]
O=C(CCc1c[nH]c2ccccc12)NCCCCCC(=O)Nc1ccc(C(=O)N[C@@H](Cc2c[nH]c3ccccc23)C(=O)O)cc1OCc1ccc(Cl)cc1 | 5.6 | 1.37 |  |  |  |  |  |  |  | 
Nc1ccc(C(=O)N[C@@H](Cc2c[nH]c3ccccc23)C(=O)O)cc1OCc1ccc(Cl)cc1 | 49 | 6.7 | < 4.30 | > 50 | < 4.30 | > 50 |  |  |  | 
O=C(CCC(=O)Nc1ccc(C(=O)N[C@@H](Cc2c[nH]c3ccccc23)C(=O)O)cc1OCCc1c[nH]c2ccccc12)NCCOCCOCCOCCNC(=O)CCC(=O)Nc1ccc(C(=O)N[C@@H](Cc2c[nH]c3ccccc23)C(=O)O)cc1OCCc1c[nH]c2ccccc12 | 6.3 | 0.37 |  |  |  |  | 2690 | 4.54 |  | 
O=C(CCc1c[nH]c2ccccc12)NCCCCCC(=O)Nc1ccc(C(=O)N[C@@H](Cc2c[nH]c3ccccc23)C(=O)O)cc1OCCc1c[nH]c2ccccc12 | 15.1 | 1.1 |  |  |  |  |  |  |  | 
Nc1ccc(C(=O)N[C@@H](Cc2c[nH]c3ccccc23)C(=O)O)cc1OCCc1c[nH]c2ccccc12 |  | 5.1 |  |  |  |  |  |  |  | 
O=C(CCC(=O)Nc1ccc(C(=O)N[C@@H](Cc2c[nH]c3ccccc23)C(=O)O)cc1OCc1ccc(Cl)cc1)NCCOCCOCCOCCNC(=O)CCC(=O)Nc1ccc(C(=O)N[C@@H](Cc2c[nH]c3ccccc23)C(=O)O)cc1OCc1ccc(Cl)cc1 | 4.4 | 0.18 | 5.33 | 18.3 |  | 20.8 | 1490 | 2.27 | 4.68 | 5.89

— ChEMBL document CHEMBL3875191, “Enhanced potency of bivalent small molecule gp41 inhibitors” (Bioorg Med Chem, 2017)
